{"source": "patent US4822408A", "about": "“Alkyl-, alkenyl- and alkynylnitroguanidines as cytokinin plant growth regulants” (American Cyanamid Company, priority 1987, dated 1989)", "test_system": "cucumber cotyledon", "test": "Cucumber cotyledon greening bioassay for relative cytokinin activity", "assay_type": "cell-based, Cucumis sativa var. National Pickling", "settings": "Dose giving 50% of the maximum possible enhancement, as judged by a standard; 0.06-64 ppm typically tested; inactive if more than 200 ppm", "note": "Some compounds may have been tested in ways that are not shown here.", "data": [{"smiles": "CNC(=N)N[N+](=O)[O-]", "values": [{"measurement": "ED50", "result": 113, "unit": "ppm"}]}]}
